According to patent US20230416786A1, “USE OF AMINOQUINOLINE COMPOUNDS FOR HIGHER GENE INTEGRATION” (CELLECTIS SA, priority 2020, published 2023):

Test system: HSCs
Test: Targeted integration of HLA-E repair template at the B2M locus in HSCs (B2M TALEN + AAV-HLA-E, flow cytometry of HLA-E positive cells)
Type: cell-based, human
Details: Example 5, FIG. 5, compound 0.02 mM, without any compound 33.3%
Text: The targeted sequences are […]gctcgcgctactc[…]
For HSCs, AAV-HLA-E particles was thawed on ice and aliquot to transduce each of the HSC samples at 10^4 viral genome per cell (vg/cell).

Structure (SMILES): CCN(CC)CCCC(C)Nc1ccnc2cc(Cl)ccc12 (stereo not shown) [chloroquine, N4-(7-chloroquinolin-4-yl)-N1,N1-diethylpentane-1,4-diamine diphosphate]
- percentage of HLA-E positive cells: 44.4%
